Consider one compound from ChEMBL document CHEMBL5096202, “Carbon-silicon switch led to the discovery of novel synthetic cannabinoids with therapeutic effects in a mouse model of multiple sclerosis” (Eur J Med Chem, 2021).

The chains behind the UniProt entries cited, without tags or fusion partners.
UniProt P34972, whole entry: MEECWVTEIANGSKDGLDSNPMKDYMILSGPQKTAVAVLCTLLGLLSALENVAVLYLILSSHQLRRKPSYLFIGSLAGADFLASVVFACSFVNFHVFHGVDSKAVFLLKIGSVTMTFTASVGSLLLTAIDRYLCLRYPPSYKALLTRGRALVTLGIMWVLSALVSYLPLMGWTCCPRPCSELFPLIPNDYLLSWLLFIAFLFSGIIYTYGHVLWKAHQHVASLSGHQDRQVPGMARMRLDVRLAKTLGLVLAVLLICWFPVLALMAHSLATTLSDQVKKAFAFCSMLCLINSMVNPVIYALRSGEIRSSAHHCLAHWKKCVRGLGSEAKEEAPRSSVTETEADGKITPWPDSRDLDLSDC

Each structure is given as a SMILES string.

The target of assay [1] is T1, Cannabinoid receptor 2 (Homo sapiens, UniProt P34972). The assay can be described thus: Agonist activity at recombinant human CB2 receptor expressed in CHO cells assessed as inhibition of forskolin-induced cAMP accumulation preincubated for 15 mins followed by forskolin stimulation and measured after 15 mins by HTRF assay. It counts as functional, cell-based.
Assay [2] concerns the target T1, Cannabinoid receptor 2. Briefly: Displacement of [3H]-CP55940 from recombinant human CB2 receptor expressed in CHO cells assessed as inhibition constant incubated for 120 mins by radioligand binding assay. In kind it is cell-based. A general note: Loss of bound radioactivity is the signal in a displacement assay; it reports binding, not function.

In general, EC50 refers to the concentration at which the effect is half-maximal. For orientation: Ki means a measure of affinity in units of concentration, obtained from inhibition or displacement. For the compound `CCCCCCC(C)(C)c1cc(OC)c([C@H]2C=C(CO)[C@H]3C[C@@H]2C3(C)C)c(OC)c1`, the EC50 on Cannabinoid receptor 2 [1] was 75.5 nM. Besides, at Cannabinoid receptor 2 [2], the Ki was 43.6 nM.
